This experiment concerns the target CDK9/cyclin T1 (Homo sapiens, UniProt P50750). In words: CDK9/cyclin T1 kinase inhibition, LANCE assay. It is filed as biochemical. Conditions: read-out: CDK9/cyclin T1 Potency Grade, reaction time 60 minutes, 10 μM ATP, 10-dose IC50, compounds 35-126 (127-208 listed, method not stated).

Sequences of proteins named here, by UniProt entry; tags and fusion partners are left off.
UniProt P50750, whole entry: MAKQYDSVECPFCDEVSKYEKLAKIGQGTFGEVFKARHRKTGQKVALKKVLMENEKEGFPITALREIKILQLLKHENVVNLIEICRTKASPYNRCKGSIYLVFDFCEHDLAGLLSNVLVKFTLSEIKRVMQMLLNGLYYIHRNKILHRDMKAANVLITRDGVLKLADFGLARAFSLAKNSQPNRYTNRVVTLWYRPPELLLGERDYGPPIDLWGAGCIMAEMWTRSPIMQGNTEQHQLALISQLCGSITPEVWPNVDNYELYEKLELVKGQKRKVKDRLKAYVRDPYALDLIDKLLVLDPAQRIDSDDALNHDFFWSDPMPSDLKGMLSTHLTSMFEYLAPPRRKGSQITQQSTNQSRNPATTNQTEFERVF
UniProt O60563, whole entry partner: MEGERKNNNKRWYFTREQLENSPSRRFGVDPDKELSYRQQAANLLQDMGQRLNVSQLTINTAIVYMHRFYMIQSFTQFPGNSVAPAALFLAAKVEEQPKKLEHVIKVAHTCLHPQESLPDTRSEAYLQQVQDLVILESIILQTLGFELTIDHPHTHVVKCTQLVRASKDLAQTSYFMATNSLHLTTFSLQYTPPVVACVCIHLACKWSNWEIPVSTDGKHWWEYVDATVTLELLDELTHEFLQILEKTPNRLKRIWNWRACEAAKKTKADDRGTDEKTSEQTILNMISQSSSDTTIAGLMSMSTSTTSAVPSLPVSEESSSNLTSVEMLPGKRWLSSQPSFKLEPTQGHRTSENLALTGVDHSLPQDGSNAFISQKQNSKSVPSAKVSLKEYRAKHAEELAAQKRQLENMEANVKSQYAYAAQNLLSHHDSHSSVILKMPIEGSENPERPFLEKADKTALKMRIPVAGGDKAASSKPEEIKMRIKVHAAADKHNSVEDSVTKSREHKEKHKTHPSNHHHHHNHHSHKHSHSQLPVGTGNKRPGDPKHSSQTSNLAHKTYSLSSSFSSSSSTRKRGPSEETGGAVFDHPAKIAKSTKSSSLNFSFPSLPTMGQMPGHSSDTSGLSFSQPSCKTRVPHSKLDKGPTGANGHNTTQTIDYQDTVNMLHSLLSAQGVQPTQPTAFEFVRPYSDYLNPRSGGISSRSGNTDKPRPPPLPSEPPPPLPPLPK

SMILES strings stand for the structures.

For the compound `CC(C)c1cc(N[C@@H]2CC[C@@H](N(C)C=O)C2)n2nccc2n1` [Compound 146], the IC50 was in the range of 0.001 to 0.5 µM.
Under `CC(C)Cc1cc(N[C@H]2CC[C@H](N)C2)n2ncc(Cl)c2n1` [Compound 76] stands 0.001 to 0.5 µM.

Source of the values: patent US11155560B2, “Substituted pyrazolo[1,5-a]pyrimidines for modulating CDK9 activity” (Kronos Bio, Inc., priority 2018, dated 2021).
